# Patent publication US20240158408A1, “Nitrogen-Containing Heterocyclic Compound, Pharmaceutical Compositions thereof and Use thereof” (280 Bio, Inc., priority 2022, published 2024)
# The chains behind the UniProt entries cited, without tags or fusion partners. Where a name states a change or a piece, a line headed by the entry shows the natural chain unless it says otherwise.
# UniProt P42336, whole entry: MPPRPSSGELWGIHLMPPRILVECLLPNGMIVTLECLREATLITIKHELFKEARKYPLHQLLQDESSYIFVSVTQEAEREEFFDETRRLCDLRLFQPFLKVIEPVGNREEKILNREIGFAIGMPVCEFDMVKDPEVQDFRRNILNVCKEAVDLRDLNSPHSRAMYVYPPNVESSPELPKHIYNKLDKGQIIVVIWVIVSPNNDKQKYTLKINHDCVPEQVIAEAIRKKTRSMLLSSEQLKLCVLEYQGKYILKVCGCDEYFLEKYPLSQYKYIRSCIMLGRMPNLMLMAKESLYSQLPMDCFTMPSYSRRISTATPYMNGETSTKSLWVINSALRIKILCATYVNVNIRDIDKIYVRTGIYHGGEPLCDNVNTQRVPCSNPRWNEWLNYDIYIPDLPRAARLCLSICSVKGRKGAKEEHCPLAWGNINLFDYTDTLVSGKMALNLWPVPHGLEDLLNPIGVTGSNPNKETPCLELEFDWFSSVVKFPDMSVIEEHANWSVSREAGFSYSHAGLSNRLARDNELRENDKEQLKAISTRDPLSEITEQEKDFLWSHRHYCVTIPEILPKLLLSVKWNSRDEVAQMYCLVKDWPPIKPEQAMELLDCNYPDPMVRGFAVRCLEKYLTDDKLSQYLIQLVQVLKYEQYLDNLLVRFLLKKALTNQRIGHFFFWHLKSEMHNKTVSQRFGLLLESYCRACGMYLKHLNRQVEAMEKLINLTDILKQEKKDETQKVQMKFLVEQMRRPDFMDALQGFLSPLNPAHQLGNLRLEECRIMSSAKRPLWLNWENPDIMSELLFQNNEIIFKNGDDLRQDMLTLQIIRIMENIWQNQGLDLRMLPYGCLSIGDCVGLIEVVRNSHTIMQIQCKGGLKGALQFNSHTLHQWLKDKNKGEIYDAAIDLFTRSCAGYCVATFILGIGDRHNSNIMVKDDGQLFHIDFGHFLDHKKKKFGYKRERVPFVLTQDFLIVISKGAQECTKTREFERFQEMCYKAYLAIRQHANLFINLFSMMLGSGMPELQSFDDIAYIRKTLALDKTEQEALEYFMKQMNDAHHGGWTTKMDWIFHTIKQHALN
# UniProt P42336, whole entry H1047R: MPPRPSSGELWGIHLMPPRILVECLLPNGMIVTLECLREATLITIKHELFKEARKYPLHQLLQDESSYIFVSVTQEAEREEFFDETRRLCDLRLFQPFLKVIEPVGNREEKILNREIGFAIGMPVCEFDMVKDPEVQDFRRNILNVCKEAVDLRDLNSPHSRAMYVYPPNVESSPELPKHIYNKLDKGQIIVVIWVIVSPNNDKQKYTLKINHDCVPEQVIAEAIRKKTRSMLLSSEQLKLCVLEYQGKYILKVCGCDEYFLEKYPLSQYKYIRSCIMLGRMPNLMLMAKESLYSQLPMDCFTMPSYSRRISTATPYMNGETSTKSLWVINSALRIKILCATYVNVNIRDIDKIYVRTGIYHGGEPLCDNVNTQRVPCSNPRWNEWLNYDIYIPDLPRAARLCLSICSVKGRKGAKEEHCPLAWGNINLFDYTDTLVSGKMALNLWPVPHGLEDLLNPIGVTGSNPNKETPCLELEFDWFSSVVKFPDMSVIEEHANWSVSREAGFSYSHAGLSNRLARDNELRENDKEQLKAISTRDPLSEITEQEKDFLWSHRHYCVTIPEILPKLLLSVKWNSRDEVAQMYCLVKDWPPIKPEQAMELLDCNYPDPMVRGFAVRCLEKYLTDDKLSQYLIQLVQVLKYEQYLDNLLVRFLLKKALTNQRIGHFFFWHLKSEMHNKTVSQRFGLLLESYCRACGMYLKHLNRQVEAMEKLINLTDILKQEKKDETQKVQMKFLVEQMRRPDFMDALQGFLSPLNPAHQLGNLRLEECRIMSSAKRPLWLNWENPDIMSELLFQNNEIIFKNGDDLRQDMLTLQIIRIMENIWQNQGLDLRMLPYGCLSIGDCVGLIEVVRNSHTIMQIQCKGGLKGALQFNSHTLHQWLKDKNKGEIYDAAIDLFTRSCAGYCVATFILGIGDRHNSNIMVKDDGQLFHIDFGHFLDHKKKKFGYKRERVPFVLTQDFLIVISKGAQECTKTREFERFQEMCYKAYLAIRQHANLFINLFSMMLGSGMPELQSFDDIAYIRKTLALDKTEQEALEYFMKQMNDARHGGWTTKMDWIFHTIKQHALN
# UniProt P27986, whole entry partner: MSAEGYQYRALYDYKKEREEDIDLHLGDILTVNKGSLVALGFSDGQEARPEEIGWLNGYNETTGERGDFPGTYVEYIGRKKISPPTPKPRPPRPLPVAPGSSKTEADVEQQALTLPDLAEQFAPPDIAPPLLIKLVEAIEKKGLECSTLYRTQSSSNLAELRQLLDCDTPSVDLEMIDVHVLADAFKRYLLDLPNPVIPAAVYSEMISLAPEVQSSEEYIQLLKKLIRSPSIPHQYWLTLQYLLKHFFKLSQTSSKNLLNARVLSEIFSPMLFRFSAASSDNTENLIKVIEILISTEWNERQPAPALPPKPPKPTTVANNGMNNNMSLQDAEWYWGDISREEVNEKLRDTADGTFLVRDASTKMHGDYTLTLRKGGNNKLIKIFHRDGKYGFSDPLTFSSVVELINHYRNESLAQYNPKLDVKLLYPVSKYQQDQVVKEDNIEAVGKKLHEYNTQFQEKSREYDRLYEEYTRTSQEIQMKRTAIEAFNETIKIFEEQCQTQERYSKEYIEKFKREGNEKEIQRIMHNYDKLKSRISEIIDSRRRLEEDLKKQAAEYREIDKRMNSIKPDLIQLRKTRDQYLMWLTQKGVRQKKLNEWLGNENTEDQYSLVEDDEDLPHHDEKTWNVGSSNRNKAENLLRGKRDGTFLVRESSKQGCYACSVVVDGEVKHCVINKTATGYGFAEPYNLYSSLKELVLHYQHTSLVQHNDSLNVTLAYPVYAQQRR
# pIC50: −log10 of the molar value.
# Biological target: PI3Kα H1047R (Homo sapiens (Human), UniProt P42336, H1047R)
# Assay: ADP-Glo Kinase Assay, PI3Kα H1047R enzyme activity inhibition
# Conditions: read-out: PI3KαH1047RIC50, ATP 25 μM, PIP2 50 μg/mL, 1 hour at room temperature
row,SMILES,pIC50
1,N#Cc1nc(N)ccc1-c1cc(NC(=O)c2cc(F)cc(C(F)(F)F)c2)c2c3c1CCN3C(=O)NC2c1cc(F)ccc1Cl (stereo not shown),> 6.60
2,N#Cc1c(N)n[nH]c1-c1cc(NC(=O)c2cc(F)cc(C(F)(F)F)c2)c2c3c1CCN3C(=O)NC2c1cc(F)ccc1Cl (stereo not shown),> 6.60
3,O=C(Nc1cc(N2CCOCC2)c2c3c1C(c1cc(F)ccc1Cl)NC(=O)N3CC2)c1cc(F)cc(C(F)(F)F)c1 (stereo not shown),5.00 to 6.60
4,Cc1c(-c2cc(NC(=O)c3cc(F)cc(C(F)(F)F)c3)c3c4c2CCN4C(=O)NC3c2cc(F)ccc2Cl)ccc2ncnn12 (stereo not shown),> 6.60
5,O=C(Nc1ccc2nn(CC(F)(F)F)c3c2c1C(c1cc(Cl)ccc1Cl)NC3=O)c1cc(F)cc(C(F)(F)F)c1 (stereo not shown),> 6.60
6,"N#Cc1nc(N)ccc1-c1cc(NC(=O)c2cc(F)cc(C(F)(F)F)c2)c2c3c1CCN3C(=O)NC2c1cc(Cl)ccc1Cl (single isomer, unassigned) [YL114-P2]",> 6.60
7,"N#Cc1nc(N)ccc1-c1cc(NC(=O)c2cc(F)cc(C(F)(F)F)c2)c2c3c1CCN3C(=O)NC2c1cc(Cl)ccc1Cl (single isomer, unassigned) [YL114-P1]",< 5.00

# Biological target: PI3Kα (Homo sapiens (Human), UniProt P42336)
# Assay: ADP-Glo Kinase Assay, PI3Kα enzyme activity inhibition
# Conditions: ATP 25 μM, PIP2 50 μg/mL, 1 hour at room temperature
row,SMILES,PI3Kaα IC50
1,N#Cc1c(-c2cc(NC(=O)c3cc(F)cc(C(F)(F)F)c3)c3c4c2CCN4C(=O)NC3c2cc(F)ccc2Cl)ccc2nccn12 (stereo not shown),+++ (+++ represents IC50>10 μM)
2,O=C(Nc1cc(Br)c2c3c1C(c1cccc4ccccc14)NC(=O)N3CC2)c1cc(F)cc(C(F)(F)F)c1 (stereo not shown),+++ (+++ represents IC50>10 μM)
3,CC(C)Nc1cc(NC(=O)c2cc(F)cc(C(F)(F)F)c2)c2c3c1CCN3C(=O)NC2c1cc(F)ccc1Cl (stereo not shown),++ (++ represents 250 nM<IC50<=10 μM)
4,O=C1NC(c2cc(F)ccc2Cl)c2c(Nc3nccc4c(C(F)(F)F)cc(F)cc34)cc(-c3c[nH]nc3F)c3c2N1CC3 (stereo not shown),+++ (+++ represents IC50>10 μM)
5,N#Cc1nc(N)ccc1-c1cc(NC(=O)c2cc(F)cc(C(F)(F)F)c2)c2c3c1CCN3C(=O)NC2c1cc(F)ccc1Cl (stereo not shown),+++ (+++ represents IC50>10 μM)
6,O=C1NC(c2cc(F)ccc2Cl)c2c(Nc3nccc4c(C(F)(F)F)cc(F)cc34)cc(Nc3cc(C(F)(F)F)n[nH]3)c3c2N1CC3 (stereo not shown),+++ (+++ represents IC50>10 μM)
7,NC(=O)c1cc(NC(=O)c2cc(F)cc(C(F)(F)F)c2)c2c3c1CCN3C(=O)NC2c1cc(F)ccc1Cl (stereo not shown),++ (++ represents 250 nM<IC50<=10 μM)
8,O=C(Nc1cc(Br)c2c3c1C(c1cc(F)ccc1Cl)NC(=O)N3CC2)c1cc(F)cc(C(F)(F)F)c1 (stereo not shown),++ (++ represents 250 nM<IC50<=10 μM)
9,"Nc1cc(-c2cc(NC(=O)c3cc(F)cc(C(F)(F)F)c3)c3c4c2CCN4C(=O)NC3c2cc(F)ccc2Cl)[nH]n1 (single isomer, unassigned) [YL053-P1]",+++ (+++ represents IC50>10 μM)
10,"O=C(Nc1cc(-c2cc(C(F)(F)F)n[nH]2)c2c3c1C(c1cc(F)ccc1Cl)NC(=O)N3CC2)c1cc(F)cc(C(F)(F)F)c1 (single isomer, unassigned) [YL065]",++ (++ represents 250 nM<IC50<=10 μM)
11,O=C(Nc1cc(-c2cnc3[nH]cnc3c2)c2c3c1C(c1cc(F)ccc1Cl)NC(=O)N3CC2)c1cc(F)cc(C(F)(F)F)c1 (stereo not shown),+++ (+++ represents IC50>10 μM)
12,O=C(Nc1cc(-c2ccc3ncnn3c2Cl)c2c3c1C(c1cc(F)ccc1Cl)NC(=O)N3CC2)c1cc(F)cc(C(F)(F)F)c1 (stereo not shown),++ (++ represents 250 nM<IC50<=10 μM)
13,N#Cc1c(N)n[nH]c1-c1cc(NC(=O)c2cc(F)cc(C(F)(F)F)c2)c2c3c1CCN3C(=O)NC2c1cc(F)ccc1Cl (stereo not shown),+++ (+++ represents IC50>10 μM)
14,Cn1nc(C(F)(F)F)cc1Nc1cc(NC(=O)c2cc(F)cc(C(F)(F)F)c2)c2c3c1CCN3C(=O)NC2c1cc(F)ccc1Cl (stereo not shown),++ (++ represents 250 nM<IC50<=10 μM)
15,O=C(Nc1cc(-c2c[nH]nc2F)c2c3c1C(c1cc(F)ccc1Cl)NC(=O)N3CC2)c1cc(F)cc(C(F)(F)F)c1 (stereo not shown),++ (++ represents 250 nM<IC50<=10 μM)
16,O=C(Nc1cc(-c2cc(C(F)(F)F)n[nH]2)c2c3c1C(c1cc(F)ccc1Cl)NC(=O)N3CC2)c1cc(F)cc(Cl)c1 (stereo not shown),++ (++ represents 250 nM<IC50<=10 μM)
17,"O=C(Nc1cc(-c2cc(C(F)(F)F)n[nH]2)c2c3c1C(c1cc(F)ccc1Cl)NC(=O)N3CC2)c1cc(F)cc(C(F)(F)F)c1 (single isomer, unassigned) [YL065-P2]",++ (++ represents 250 nM<IC50<=10 μM)
18,Cn1cc(Nc2cc(NC(=O)c3cc(F)cc(C(F)(F)F)c3)c3c4c2CCN4C(=O)NC3c2cc(F)ccc2Cl)cn1 (stereo not shown),++ (++ represents 250 nM<IC50<=10 μM)
19,O=C1NC(c2cc(F)ccc2Cl)c2c(Nc3nccc4c(C(F)(F)F)cc(F)cc34)cc(Nc3c[nH]nc3F)c3c2N1CC3 (stereo not shown),+++ (+++ represents IC50>10 μM)
20,O=C(Nc1cc(N2CCOCC2)c2c3c1C(c1cc(F)ccc1Cl)NC(=O)N3CC2)c1cc(F)cc(C(F)(F)F)c1 (stereo not shown),+++ (+++ represents IC50>10 μM)

row,SMILES,PI3Kaα IC50
1,O=C(Nc1cc(-c2cnn(C3CCOCC3)c2)c2c3c1C(c1cc(F)ccc1Cl)NC(=O)N3CC2)c1cc(F)cc(C(F)(F)F)c1 (stereo not shown),++ (++ represents 250 nM<IC50<=10 μM)
2,O=C(Nc1ccc2c3c1C(c1cc(F)ccc1Cl)NC(=O)N3CC2)c1cc(F)cc(C(F)(F)F)c1 (stereo not shown),++ (++ represents 250 nM<IC50<=10 μM)
3,C[C@H](N)C(=O)Nc1cc(NC(=O)c2cc(F)cc(C(F)(F)F)c2)c2c3c1CCN3C(=O)NC2c1cc(F)ccc1Cl (stereo partly shown),+++ (+++ represents IC50>10 μM)
4,Cc1c(-c2cc(NC(=O)c3cc(F)cc(C(F)(F)F)c3)c3c4c2CCN4C(=O)NC3c2cc(F)ccc2Cl)ccc2ncnn12 (stereo not shown),+++ (+++ represents IC50>10 μM)
5,O=C(Nc1cc(NC(=O)[C@@H]2CCCN2)c2c3c1C(c1cc(F)ccc1Cl)NC(=O)N3CC2)c1cc(F)cc(C(F)(F)F)c1 (stereo partly shown),++ (++ represents 250 nM<IC50<=10 μM)
6,O=C(Nc1cc(C(=O)O)c2c3c1C(c1cc(F)ccc1Cl)NC(=O)N3CC2)c1cc(F)cc(C(F)(F)F)c1 (stereo not shown),+++ (+++ represents IC50>10 μM)
7,NCC(=O)Nc1cc(NC(=O)c2cc(F)cc(C(F)(F)F)c2)c2c3c1CCN3C(=O)NC2c1cc(F)ccc1Cl (stereo not shown),+++ (+++ represents IC50>10 μM)
8,O=C(Nc1cc(-c2cccc3nncn23)c2c3c1C(c1cc(F)ccc1Cl)NC(=O)N3CC2)c1cc(F)cc(C(F)(F)F)c1 (stereo not shown),++ (++ represents 250 nM<IC50<=10 μM)
9,"O=C(Nc1cc(-c2cc(C(F)(F)F)n[nH]2)c2c3c1C(c1cc(F)ccc1Cl)NC(=O)N3CC2)c1cc(F)cc(C(F)(F)F)c1 (single isomer, unassigned) [YL065-P1]",+++ (+++ represents IC50>10 μM)
10,O=C(Nc1ccc2nn(CC(F)(F)F)c3c2c1C(c1cc(Cl)ccc1Cl)NC3=O)c1cc(F)cc(C(F)(F)F)c1 (stereo not shown),+++ (+++ represents IC50>10 μM)
11,O=C(Nc1ccc2c3c1C(c1cc(F)ccc1Cl)NC(=O)N3CCO2)c1cc(F)cc(C(F)(F)F)c1 (stereo not shown),+++ (+++ represents IC50>10 μM)
12,Cc1ccccc1C1NC(=O)N2CCc3ccc(NC(=O)c4csc5ccccc45)c1c32 (stereo not shown),++ (++ represents 250 nM<IC50<=10 μM)
13,"Nc1cc(-c2cc(NC(=O)c3cc(F)cc(C(F)(F)F)c3)c3c4c2CCN4C(=O)NC3c2cc(F)ccc2Cl)[nH]n1 (single isomer, unassigned) [YL053-P2]",++ (++ represents 250 nM<IC50<=10 μM)
14,Nc1c(-c2cc(NC(=O)c3cc(F)cc(C(F)(F)F)c3)c3c4c2CCN4C(=O)NC3c2cc(F)ccc2Cl)ccc2ncnn12 (stereo not shown),+++ (+++ represents IC50>10 μM)
15,O=C(Nc1cc(-c2cn[nH]c2)c2c3c1C(c1cc(F)ccc1Cl)NC(=O)N3CC2)c1cc(F)cc(C(F)(F)F)c1 (stereo not shown),++ (++ represents 250 nM<IC50<=10 μM)
16,"N#Cc1nc(N)ccc1-c1cc(NC(=O)c2cc(F)cc(C(F)(F)F)c2)c2c3c1CCN3C(=O)NC2c1cc(Cl)ccc1Cl (single isomer, unassigned) [YL114-P2]",+++ (+++ represents IC50>10 μM)
17,O=C(CO)Nc1cc(NC(=O)c2cc(F)cc(C(F)(F)F)c2)c2c3c1CCN3C(=O)NC2c1cc(F)ccc1Cl (stereo not shown),+++ (+++ represents IC50>10 μM)
18,O=C(Nc1ccc2ccn3c2c1C(c1cc(F)ccc1Cl)NC3=O)c1cc(F)cc(C(F)(F)F)c1 (stereo not shown),++ (++ represents 250 nM<IC50<=10 μM)
19,O=C(Nc1ccc2c3c1C(c1cc(F)ccc1Cl)NC(=O)N3CCC2)c1cc(F)cc(C(F)(F)F)c1 (stereo not shown),+++ (+++ represents IC50>10 μM)
